Antibody variant affinities, Ab-95 light chain, assay 2

The measurements come from Engelhart et al. 2022 (doi:10.1038/s41597-022-01779-4) through the FLAb antibody collection.

Binding partner: SARS-CoV-2 spike HR2 peptide, sequence PDVDLGDISGINAS.

The variants keep the heavy chain, the linker and the frameworks of Ab-95 (scFv order VH, three GGGGS repeats, VL).
VH: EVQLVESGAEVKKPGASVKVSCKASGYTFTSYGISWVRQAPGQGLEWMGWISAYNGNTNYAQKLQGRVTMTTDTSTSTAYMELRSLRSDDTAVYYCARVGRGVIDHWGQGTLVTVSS
VL: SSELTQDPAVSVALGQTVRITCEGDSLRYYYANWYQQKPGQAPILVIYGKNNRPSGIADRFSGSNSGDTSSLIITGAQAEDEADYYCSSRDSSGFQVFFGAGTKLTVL

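The parent was found by panning a naive human phage display library on the peptide. In library AAYL52, one, two or three CDR residues were substituted; doubles and triples were drawn at random. In AlphaSeq, yeast of one mating type display the scFv and yeast of the other type display the target. The frequency of each diploid, read from paired DNA barcodes, reflects how well the two displayed proteins bind. A regression on co-assayed BCL2-family reference pairs converts the normalised counts of each replicate to an apparent Kd. The assay was run in three technical replicates.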

Each variant is given by its three light chain CDRs, as the data file delimits them; those of the parent are EGDSLRYYYAN, GKNNRPS, SSRDSSGFQVF.
Every variant below is changed at D25 of the VL (sequential numbering).
Numbers give log10(Kd / nM), so 0 is 1 nM and 3 is 1 µM. Smaller is tighter.
A mean of the replicates is given; it leaves out those without a signal.
An entry "no signal" has no value in the source: the pair was not observed among the diploids in any replicate. This suggests poor binding but is not conclusive.
The list is sorted by this average, lowest first, undetected variants last.
For reference, the parent read 2.31 as the reference entry and 2.25 as a member of this library.
As a blank, each scFv also met three strains without target: over library AAYL52, 28% of these pairings were detected, typically at 3.91 and seldom below 2.90.

Variant EGQSLRPYPAN | GKNNRPS | SSRDSSGFQVF gave 1.72 (3 of 3 replicates). Variant HGLSLRYYSAN | GKNNRPS | SSRDSSGFQVF showed 1.85 (3 of 3 replicates). For EGQSLRYYYAN | GKNNRPS | SSRDSSGFQVF, the assay gave 1.87 (3 of 3 replicates). Variant YGPSLRYYYAN | GKNNRPS | SSRDSSGFQLF gave 1.95 (3 of 3 replicates). With HGESLRYYYAN | GKNNRPS | SSRDSSVFQVF the result was 2.06 (3 of 3 replicates). Variant EGFSLRYYYAN | GKNNRPS | SSRDSSKFQVF showed 2.11 (3 of 3 replicates). Variant EGTSLRYYYAN | GKNNRPA | SSRDSSGNQVF gave 2.33 (3 of 3 replicates).

With EGHSLRYYYAN | GKNNRPS | SSRNSDGFQVF the result was 2.36 (3 of 3 replicates). Variant EGISGRYYYAN | GKNNRPS | NSRDSSGFQVF showed 2.45 (3 of 3 replicates). Variant EGPSLRYYYAN | GKNNRPE | SSRDSSGHQVF showed 2.47 (3 of 3 replicates). Variant EHESLRYYYAN | GKNNRPS | SSRDSSGFQVF showed 2.56 (3 of 3 replicates). Variant EGKSLRYYYAN | GKNNRPI | SSRDSSGFQVF showed 2.60 (3 of 3 replicates). For EGVSLQYYYAN | GKNNRPS | SSRDSTGFQVF, the assay gave 2.71 (3 of 3 replicates). For EGRSLRYYYAN | GKNNRPG | SSRDSSGFQVF, the assay gave 2.76 (3 of 3 replicates).

For EGPSLRYYYAN | GKNNRPS | SSGDSSGFQTF, the assay gave 2.76 (3 of 3 replicates). With EGQSLRYYYAN | GKNNRPA | SSRGSSGFQVF the result was 2.86 (3 of 3 replicates). For EGESLRYYYAN | GKNNFPS | SSRDSSGFNVF, the assay gave 2.87 (2 of 3 replicates). For EGWSLRYYYAN | GANNRPS | SSRDSSGFQVF, the assay gave 2.89 (2 of 3 replicates). Variant HGGSLRYYYAN | GKNNRPS | SSRDFSGFQVF showed 2.92 (3 of 3 replicates). With EGAVTRYYYAN | GKNNRPS | SSRDSSGFQVF the result was 2.99 (3 of 3 replicates). For EGVSLRYYYAN | GKNNRPS | NSRDSSGHQVF, the assay gave 3.10 (2 of 3 replicates).

Variant EGLSDRYYYAN | GKNNRPS | SSRDHSGFQVF showed 3.15 (3 of 3 replicates). With EGVSLRYYYFN | GKNNRPS | SSRDSSGFQVF the result was 3.21 (1 of 3 replicates). Variant EGYSLSYYYAN | GKNNRPS | SSNDSSGFQVF showed 3.31 (2 of 3 replicates). Variant EGGSCRYYYAN | GKNNRPS | SSRASSGFQVF showed 3.33 (3 of 3 replicates). With EGYSLRYYYAN | GKNNRDS | SSRDSSGFQEF the result was 3.39 (2 of 3 replicates). For EGHSLRYYYAN | NKNNRPS | SSRDSSGFQVN, the assay gave 3.58 (1 of 3 replicates). For EGMSLRYYYAN | DKNNRPS | SSRDSSDFQVF, the assay gave 3.61 (1 of 3 replicates).

Variant EGQSLRYYYAN | GMNNRPS | SSRDSSGFGVF showed 3.67 (3 of 3 replicates). Variant EGLSLRIYYAN | GKNNRPS | SSRDNSGFQVF showed 3.70 (1 of 3 replicates). For EGQLLRYYYAN | GKNNRPS | SSMDSSGFQVF, the assay gave 3.72 (1 of 3 replicates). For EGWSLVYYYPN | GKNNRPS | SSRDSSGFQVF, the assay gave 3.96 (3 of 3 replicates). For EGHSDRYYYAN | GQNNRPS | SSRDSSGFQVF, the assay gave 4.17 (2 of 3 replicates). Variant EGISLRYYYAN | KKNNRPS | SSRDSSFFQVF gave 4.26 (2 of 3 replicates). Variant EGGSLRYYKAN | GKNNRPS | SSRGSSGFQVF gave 4.43 (2 of 3 replicates).

Variant EGNSLRYYYAN | GKNNRLS | SSRESSGFQVF gave 4.74 (1 of 3 replicates). Variant EGKSLRYYYAS | GKNNRPS | SPRDSSGFQVF showed 4.88 (3 of 3 replicates). Variant EGAWLRYYYAD | GKNNRPS | SSRDSSGFQVF gave 4.92 (1 of 3 replicates). Variant EGWSLRYYYAN | GKNPRPS | SSRDMSGFQVF gave 5.23 (1 of 3 replicates). Variant EGMSLRYYYAN | GKNNYPS | SSRDFSGFQVF showed 5.36 (1 of 3 replicates). Variant EGCSLRYYYAN | GKNLRPA | SSRDSSGFQVF gave no signal (0 of 3 replicates). With EGCSLRYYYAN | GKSNRPS | SSRDSSGFYVF the result was no signal (0 of 3 replicates).

With EGPSLRYYYAN | GKWNRPS | SSRDSSVFQVF the result was no signal (0 of 3 replicates).

The first 3 variants above that were never detected:

Variant EGCSLRYYYAN | GKNLRPA | SSRDSSGFQVF gave no signal (0 of 3 replicates).
Variant EGCSLRYYYAN | GKSNRPS | SSRDSSGFYVF gave no signal (0 of 3 replicates).
Variant EGPSLRYYYAN | GKWNRPS | SSRDSSVFQVF gave no signal (0 of 3 replicates).